# Assay outcomes deposited in PubChem BioAssay by National Center for Advancing Translational Sciences (NCATS).
# Compounds with a hit are over-represented: about 2.2% of the library has one in this group of screens.
# A549 tox: counter-screen for Nrf2 inhibitors: cytotoxicity in A549 cells; 0.16% of 390,000 active; A549 ARE-Fluc cells, CellTiter-Fluor viability, 18-24 h; Potency, µM (titrated, usually from 46 µM), inactives show at the top dose activity change, negative = cytotoxicity, most hits filed as inhibitors; AID 504648; also: potency is read from the fitted curve at half-maximal effect; % is scaled to controls: 0 for no effect and ±100 for the full control effect
#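 A549 ARE-Fluc cells in 5% FBS OPTI-MEM, 5000 cells/well, rested 2 h then exposed to compounds in concentration-response for 18-24 h at 37 °C. Viability by CellTiter-Fluor fluorescence (Ex 405/Em 525) after 30 min; luciferase luminescence (BugLite, 15 min, RT) read afterwards.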
# B2AR arrestin: agonists driving beta-arrestin recruitment to human beta2-adrenergic receptor | 0.02% of 330,000 active | Potency, µM (doses to about 46.1 µM), without a hit: at the highest dose activation, actives largely listed as activators | beta-arrestin recruitment to beta2AR, cell-based reporter | AID 492947;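 also: potency is read from the fitted curve at half-maximal effect; 0% = DMSO controls and full agonism = EC100 isoproterenol or metaproterenol; nearly all actives have a fitted effect of over 65% in size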
# miR-21 FLuc: miR-21 reporter, rising signal; HeLa miR-21 FLuc reporter, luciferase, 48 h; Potency, µM (doses to about 38.3 µM), for inactives: at the highest dose reporter change, positive = more light; 340,000 tested, under 10 active; AID 2288; active = well fitted rising curve with a large enough effect; inconclusive = small, poorly fitted or top-dose-only effect; inactive = no such curve, though single readings can be large or run the other way;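 further: % of control where 0% means no effect; miR-21 action dims this reporter so a rising signal means less miR-21 action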
#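 Using DMEM plus 10% FBS, HeLa miR-21-FLuc cells are incubated with test compounds (final up to about 40uM) for 48 hours; firefly luciferase signal is then imaged following reagent-mediated lysis.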
# Nrf2 activator: Nrf2 pathway activation; AREc32 ARE-luciferase reporter (MCF7-derived line), luminescence, 24 h; Potency, µM (titrated, usually from 46.1 µM), for the others: at the top dose activation, actives largely listed as activators; 0.31% of 410,000 active; AID 624171; also: potency is read from the fitted curve at half-maximal effect; % of control where 0% means no effect; nearly all actives have a fitted effect of over 65% in size
#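 Luminescent ARE reporter assay in AREc32_Fluc cells: overnight plating at 37 deg C, 24 hr compound incubation, Steady-Glo added, 30 min RT before reading.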
# Nrf2 block: inhibitors of Nrf2 signaling | 2.1% of 360,000 active | A549 ARE-Fluc reporter, luciferase luminescence, 18-24 h | Potency, µM (doses to about 46 µM), inactives show at the top dose activity change, negative = inhibition, hits mostly inhibitors | AID 504444; also: potency is read from the fitted curve at half-maximal effect; % is scaled to controls: 0 for no effect and ±100 for the full control effect; nearly all actives have a fitted effect of over 60% in size
#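 Nrf2 activity is the BugLite luminescence, read 15 min after reagent at room temperature, following CellTiter-Fluor cytotoxicity readout (30 min, 37C). Compound titrations were applied for 18-24 h to 5000 A549 ARE_Fluc cells/well in 5% FBS OPTI-MEM.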
# The depositor's hits bear a star; ? = inconclusive; . = no result given; [ ] = dose if it differs, or a comment. Unless noted, calls follow the shape of the dose curve; as a rule, active = well fitted curve in the direction sought with a large enough effect; inconclusive = small, poorly fitted or top-dose-only effect, or another doubt; inactive = no such curve, though single readings can be large; an effect the other way counts as inactive or inconclusive.
item	Compound	A549 tox	B2AR arrestin	miR-21 FLuc
1	Cc1nc2cc(-c3cccc(F)c3)nn2c(C)c1CCC(=O)Nc1ccccc1C(N)=O	-4%	.	29%
2	Cc1ccc2nc(-c3ccc(N=Nc4cc(S(=O)(=O)O)c5ccccc5c4O)cc3)sc2c1S(=O)(=O)O	13µM*	.	.
3	COc1ccc(OC)c(-c2nnc3n2N=C(c2c(OC)cccc2OC)CS3)c1	2%	.	.
4	O=C1S/C(=C\c2ccc(O)c([N+](=O)[O-])c2)C(=O)N1c1ccccc1Cl	?	0%	12%
5	COc1cc(/C=C2/C(=O)NN(c3ccc(C)c(Cl)c3)C2=O)cc([N+](=O)[O-])c1O	-15%	0%	-2%
6	COc1cc(/C=C2\SC(=O)N(c3ccc(Cl)cc3)C2=O)cc([N+](=O)[O-])c1O	16µM*	0%	-4%
7	COc1cc(/C=C2\SC(=O)N(c3cccc(Cl)c3)C2=O)cc([N+](=O)[O-])c1O	13µM*	0%	0%
8	Cc1ccc2nc(SC(C)C(=O)Nc3cccc([N+](=O)[O-])c3)[nH]c2c1 (stereo unspecified)	-15%	7%	19%
9	Cc1ccc2nc(SC(C)C(=O)NC3CCCC3)[nH]c2c1 (stereo unspecified)	-4%	-1%	.
10	Cc1cc(C)cc(NC(=O)C2CCC(CNS(=O)(=O)c3ccc4c(c3)C(C)(C)C(=O)N4C)CC2)c1 (stereo unspecified)	-2%	.	?
11	Nc1c(Cl)cc(N=Nc2ccccc2)cc1Cl	-10%	.	.
12	Oc1ccc(Cl)cc1N=Nc1ccccc1	-4%	0%	-11%

item	Nrf2 activator	Nrf2 block
1	0%	?
2	.	12%
3	.	11%
4	6%	?
5	0%	-2%
6	-1%	?
7	-1%	?
8	7%	21µM*
9	1%	-15%
10	0%	?
11	6.3µM*	?
12	?	3%

# (further entries)
item	Compound	A549 tox	B2AR arrestin	miR-21 FLuc
13	Cc1ccc(NC(=O)/C(=C/c2cccc([N+](=O)[O-])c2)NC(=O)C2CCCCC2)c(C)c1	-20%	-1%	1%
14	COc1ccc(CCn2c3c(c(=O)[nH]c2=S)CN(c2ccccc2)CN3)cc1OC	10%	.	.
15	CCOC(=O)C1=C(C)N=c2s/c(=C\c3ccc(O)c([N+](=O)[O-])c3)c(=O)n2C1c1ccccc1OC (stereo unspecified)	-25%	0%	-2%
16	CCOC(=O)C1=C(C)N=c2s/c(=C/c3cccc([N+](=O)[O-])c3O)c(=O)n2C1c1ccc(OC)cc1OC (stereo unspecified)	16µM*	0%	4%
17	Cc1ccc(S(=O)(=O)c2[nH]c(-c3ccccc3)nc2SC(C)C(=O)O)cc1 (stereo unspecified)	-2%	.	0%
18	COc1ccc(CNc2ncnc3ccc(-c4c(C)noc4C)cc23)cc1	9%	.	.
19	COC(=O)c1c(NC(=O)/C=C/c2ccco2)sc2c1CCC2	1%	-1%	-1%
20	COC(=O)c1c(NC(=O)c2ccco2)sc2c1CCC2	15%	0%	-19%
21	Cc1cc(C)c2c(=O)cc(C(=O)Nc3ccc(C)c(Cl)c3)oc2c1	7%	.	3%
22	CSc1ncccc1C(=O)Nc1nc2ccc(Oc3ccccc3)cc2s1	-7%	0%	-45%
23	COc1ccc2nc(NC(=O)c3ccccc3F)sc2c1	7%	0%	-15%
24	CSc1ncccc1C(=O)Nc1ccc2nc(C)sc2c1	-2%	0%	-59%

item	Nrf2 activator	Nrf2 block
13	-1%	9.2µM*
14	.	-26%
15	0%	-11%
16	0%[9.22 µM]	?
17	0%	7%
18	.	-19%
19	1.4µM*	16%
20	?	?
21	-1%	2%
22	8%	10µM*
23	?	1.3µM*
24	0%	3%

# (next part)
item	Compound	A549 tox	B2AR arrestin	miR-21 FLuc
25	COc1ccc(NC(=O)Nc2nc3ccccc3s2)cc1	?	0%	-58%
26	COc1ccc2nc(NC(=O)c3ccccc3C(=O)O)sc2c1	0%	0%	-9%
27	COc1ccc2nc(NC(=O)c3nc(S(=O)(=O)Cc4ccccc4F)ncc3Cl)sc2c1	?	.	?
28	COc1ccc(C(=O)Nc2nc3ccccc3s2)c(OC)c1	4%	0%	?
29	COc1ccc(NC(=O)CN2CCCN(Cc3ccc(Cl)cc3)S2(=O)=O)cc1Cl	-10%	.	14%
30	COc1ccccc1C(=O)Nc1nc2ccccc2s1	3%	-1%	?
31	Fc1ccc(Nc2nc(SCc3cccc(F)c3)nc3ccccc23)cc1	-4%	.	13%
32	CCOc1ccccc1NC(=O)Cn1c(=O)n(CCCC(=O)NCCOC)c(=O)c2cc(OC)c(OC)cc21	-6%	.	8%
33	COc1cc(C(=O)Nc2ccc3oc(-c4cccnc4)nc3c2)cc(OC)c1OC	-2%	0%	1%
34	COc1cc(C(=O)Nc2ccc3oc(-c4ccccc4)nc3c2)cc(OC)c1OC	?	.	?
35	COc1ccc(Cl)cc1-c1nc(-c2ccc(NC(=O)c3ccncc3)cc2)no1	-1%	.	.
36	COc1ccc(C(=O)Nc2ccc3oc(-c4cccnc4)nc3c2)cc1OC	-3%	0%	-3%

item	Nrf2 activator	Nrf2 block
25	5%	?
26	4%	-15%
27	10µM*	3%
28	-2%	7.3µM*
29	2%	-10%[9.27 µM]
30	-6%	6.5µM*
31	-2%	.
32	0%	9%[9.27 µM]
33	0%	?
34	-3%	21µM*
35	0%	-18%
36	0%	13µM*

# Following part.
item	Compound	A549 tox	B2AR arrestin	miR-21 FLuc
37	O=C(Nc1ccc2oc(-c3ccccc3)nc2c1)c1ccc2c(c1)OCCO2	?	0%	-1%
38	COc1ccc(-c2nc(-c3ccc(NC(=O)c4ccncc4)cc3)no2)cc1OC	0%	-1%	10%
39	CCc1ccc(OCCn2c(CCNC(=O)C3CCCCC3)nc3ccccc32)cc1	0%	.	.
40	COc1ccc(C2Nc3ccccc3C(=O)N2Cc2ccccc2)cc1COc1ccc(C#N)cc1 (stereo unspecified)	2%	.	.
41	COc1ccc(NC(=O)c2csc(Cc3ccc(Cl)cc3)n2)cc1	7%	0%	0%
42	O=C(Nc1ccc(Cl)cc1)c1sccc1-n1cccc1	11%	0%	-6%
43	COc1ccc(COc2ccsc2C(=O)Nc2ccc(Cl)cc2)cc1	?	0%	0%
44	CCC(=O)N1c2nc(-c3ccco3)nn2C2(CCCCC2)[C@@H]2CCCC[C@@H]21	-16%	.	-6%
45	Oc1ccccc1CNc1cnc2ccccc2c1	-13%	-1%	-41%
46	C=CCc1cccc(CNc2cnc3ccccc3c2)c1O	3%	0%	2%
47	CC(=O)NC(c1ccc2ccccc2c1)c1ccc2cccnc2c1O (stereo unspecified)	-20%	4%	26%
48	CCC(=O)NC(c1cccs1)c1ccc2cccnc2c1O (stereo unspecified)	-8%	13µM*	26%
49	CCCC(=O)NC(c1ccc(C)cc1)c1ccc2cccnc2c1O (stereo unspecified)	0%	8%	23%

item	Nrf2 activator	Nrf2 block
37	-1%	9.2µM*
38	0%	13µM*
39	.	?
40	.	-8%
41	0%	9%
42	11µM*	?
43	8.9µM*	?
44	10%	13%
45	?	?
46	12%	23µM*
47	0%	15µM*
48	-1%	?
49	-1%	?

# Full records as entered above. Order of screens: A549 tox, B2AR arrestin, miR-21 FLuc, Nrf2 activator, Nrf2 block
# CCCC(=O)NC(c1ccc(C)cc1)c1ccc2cccnc2c1O (stereo unspecified) as listed: 0%, 8%, 23%, -1%, ?
# COc1ccc(COc2ccsc2C(=O)Nc2ccc(Cl)cc2)cc1 as listed: ?, 0%, 0%, 8.9µM*, ?
# COc1ccc(C2Nc3ccccc3C(=O)N2Cc2ccccc2)cc1COc1ccc(C#N)cc1 (stereo unspecified) as listed: 2%, ., ., ., -8%
# Oc1ccccc1CNc1cnc2ccccc2c1 as listed: -13%, -1%, -41%, ?, ?
# COc1ccc(NC(=O)c2csc(Cc3ccc(Cl)cc3)n2)cc1 as listed: 7%, 0%, 0%, 0%, 9%
